Assays:
[1] = test system: Melanocytes (B16 cell line); assay: Melanogenesis inhibition assay: number of viable cells by level of cellular proteins (Bradford's method)
B16 melanocytes = assay: Amount of cellular proteins in parallel B16 cultures (harmlessness at the used dose)

Substance: Sucrose laurate [Sucrose laurate of example 5]
- effect on the rate of viable B16 melanocytes (in words) ([1]; at the doses of Tables 1 and 4): have not modified
- Rate of cellular proteins in %/control ([1]; sucrose laurate 0.0003% (w/v) alone, 3 assays): 102 +/− 4 %/control
- Rate of cellular proteins in %/control ([1]; sucrose laurate 0.001% (w/v) alone, 2 assays (Table 4)): 90 +/− 9 %/control
- Rate of cellular proteins in %/control ([1]; sucrose laurate 0.001% (w/v) alone, 3 assays (Table 1)): 99 +/− 3 %/control
- toxic effects judged by amount of cellular proteins (in words) (B16 melanocytes; at the concentrations of Tables 7bis and 8bis): do not show any toxic effects
- Amount of cellular proteins in %/control (B16 melanocytes; sucrose laurate 0.005% (w/v) alone): 87 +/− 6 %/control
- Amount of cellular proteins in %/control (B16 melanocytes; sucrose laurate 0.01% (w/v) alone): 86 +/− 7 %/control

Reference: patent US9949917B2, “Cosmetic composition comprising a combination of a sugar fatty acid ester with a plant extract of Waltheria indica or Pisum sativum for skin whitening” (Cognis IP Management GmbH, priority 2006, dated 2018)
